Apparent affinities of Ab-91 variants for a coronavirus HR2 peptide

The measurements come from Engelhart et al. 2022 (doi:10.1038/s41597-022-01779-4) through the FLAb antibody collection.

All variants were tested on one target, the spike HR2 peptide PDVDLGDISGINAS (SARS-CoV-2).

Parent: Ab-91, a human scFv built as VL, three GGGGS repeats, VH. Only the CDRs of the heavy chain vary.
VL: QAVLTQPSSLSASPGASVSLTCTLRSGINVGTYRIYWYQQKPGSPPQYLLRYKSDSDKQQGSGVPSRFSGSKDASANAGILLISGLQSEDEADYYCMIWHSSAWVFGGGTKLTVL
VH: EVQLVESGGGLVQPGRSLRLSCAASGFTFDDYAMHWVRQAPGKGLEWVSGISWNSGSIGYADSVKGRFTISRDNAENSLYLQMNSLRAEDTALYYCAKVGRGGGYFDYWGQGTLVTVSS

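The starting antibody came from a phage panning campaign against this peptide. Variants in AAYL51 differ from the parent at up to three CDR positions; double and triple changes were sampled at random. In AlphaSeq, yeast of one mating type display the scFv and yeast of the other type display the target. Pairs that bind mate more often; barcode pairs of the diploids are counted by sequencing. Each replicate has its own calibration line, from reference interactions of the BCL2 family. The assay was run in three technical replicates.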

The parent's heavy chain CDRs are GFTFDDYAMH, GISWNSGSIGYADSVK, VGRGGGYFDY; each variant's own CDRs replace them letter for letter.
Numbers give log10(Kd / nM), so 0 is 1 nM and 3 is 1 µM. Smaller is tighter.
Replicates are averaged; those with no signal do not enter the mean.
An entry "not detected" has no value in the source: the pair was not observed among the diploids in any replicate. This suggests poor binding but is not conclusive.
For reference, the parent read 1.86 as the reference entry and 0.88 as a member of this library.

CDR-H1,CDR-H2,CDR-H3,"log10 Kd (nM), mean",detected,signal with controls
GFTFDDYAMH,GWSWNSGSIGYAISVK,VLRGGGYFDY,4.71,2 of 3,3 of 9
GFTFDDYAMH,GISWNSGHIGYADSVK,VGRGGGGFDY,4.06,3 of 3,6 of 9
GFTFDDYAMH,GISWNSGSIGYADSVK,VNRGGGIFDY,4.26,2 of 3,4 of 9
GFTFDDYAMH,GISWNSGSIGCADSVK,VGRVGGYFDY,not detected,0 of 3,0 of 9
GFTFADYAMH,EISWNSGSDGYADSVK,VGRGGGYFDY,4.04,1 of 3,5 of 9
GFTFDDYAMH,GISWNSGSIGAADSVK,VGRGGGNFDY,not detected,0 of 3,4 of 9
GFTFDDYARH,GISNNSCSIGYADSVK,VGRGGGYFDY,not detected,0 of 3,2 of 9
GFTFDDYAMH,GISWNSPSIGYADSVK,VGRGGGYFDP,4.08,1 of 3,2 of 9
GFTFDDRAMH,GISANSGSIGYADSVK,VGRGGGYFDY,5.27,2 of 3,5 of 9
GFFFDDYAMH,GTSWNSGSIGYADSVT,VGRGGGYFDY,4.52,1 of 3,0 of 9
GFTFDDYAMM,GISWNSGSIGYRDLVK,VGRGGGYFDY,5.41,3 of 3,7 of 9
GFTFDDYAMH,GISWNSGSIIYANTVK,VGRGGGYFDY,not detected,0 of 3,1 of 9
GFGFDFYAMH,GISWNSGSIGYADSVK,VGRGGGEFDY,not detected,0 of 3,0 of 9
GFTFDDYAMH,GISWNSGSIGYAPSHK,VGRGGGLFDY,3.03,3 of 3,3 of 9
GFTFDDYAMH,GISWNSGGIGYADSVK,VGRGQGYLDY,2.22,3 of 3,0 of 9
GFTFDDYLMH,GSSWNSGSIGYADSVK,VGMGGGYFDY,4.85,1 of 3,2 of 9
GFTFDDYAMH,HISWNSGSIGYLDSVK,VGRGGCYFDY,not detected,0 of 3,0 of 9
GFTFDDYAMH,GISWNSGSKGYADSVM,DGRGGGYFDY,0.54,3 of 3,0 of 9
GFWFDDYIMH,GISWNSGSIGYADSVK,VGRGGGYFDY,3.95,1 of 3,0 of 9
GFTFDDYAMH,GISWRSGSAGYADSVK,VGRGGRYFDY,not detected,0 of 3,1 of 9
GFTFADYAMH,GISWNSHSIGYADNVK,VGRGGGYFDY,1.03,3 of 3,8 of 9
GFTFDDYAMH,YISWNSGSIGYADSVD,VGRGGWYFDY,not detected,0 of 3,0 of 9
GFTFDDYAMH,GISWNSGSDGYADSVP,VGRGGGYRDY,not detected,0 of 3,0 of 9
GFTFDDYAMH,GISWNSGSIGYADSSK,TGRGGGYFDN,5.40,1 of 3,1 of 9

Second part, the sequence after the result:

"log10 Kd (nM), mean",detected,signal with controls,CDR-H1,CDR-H2,CDR-H3
4.73,1 of 3,0 of 9,GFTFDDYAMH,TISWNSGSIGYADSVK,VGMGGRYFDY
not detected,0 of 3,0 of 9,GFTFDDYAWH,VISWNSGCIGYADSVK,VGRGGGYFDY
not detected,0 of 3,2 of 9,GATFDDYAHH,GISWNSGSIGYADSVK,VVRGGGYFDY
not detected,0 of 3,1 of 9,GFTFDDYAMH,YISWNSGSIGYADSVK,LGRGGGYFDY
not detected,0 of 3,1 of 9,GFTFDDYAMH,GISWNSGSIGGADSVK,VGRGELYFDY
not detected,0 of 3,0 of 9,GFTFDAYAMH,GNSWNSGSIGYADSVK,VGCGGGYFDY
3.69,1 of 3,1 of 9,KFTFDDYAMH,GVSWNSGSIGYADSVK,VGRGGGYFDY
4.71,2 of 3,5 of 9,GFTWDDYAMH,GISWNSGSIGYADSVK,EGRGGGYFWY
5.35,1 of 3,2 of 9,GFTFCDYAMH,GISWNSGSIEYADSVK,VCRGGGYFDY
not detected,0 of 3,2 of 9,GFTFDDYAMH,GISWNDGSIGYADSVK,LGRGPGYFDY
4.62,1 of 3,3 of 9,GFTNDDYAMH,GISWNMGSIGYADSVK,VGRGGGYADY
not detected,0 of 3,0 of 9,GFTFDHYAMH,GISWNSGSIGYADSVK,VDRGGGYFDV
not detected,0 of 3,3 of 9,GFTFDDYAMH,GISWNSGSIGYADQVK,VPRGGGYFHY
not detected,0 of 3,0 of 9,GFTFDDYAMH,GISWNSGSIGYADSVK,VGRGGGYFPG
not detected,0 of 3,0 of 9,GFTPDDYAMH,GISWNSTSIGYADSSK,VGRGGGYFDY
not detected,0 of 3,0 of 9,GFTFDDYAMH,CIKWNSGSIGYADSVK,VCRGGGYFDY
not detected,0 of 3,0 of 9,GFNFDDYAMH,IISWNSGSIGYADSVK,VGRGGGYFTY
3.19,3 of 3,3 of 9,GFTFDDYAMH,GISRNSGSIGYADSVK,VGDGGGYKDY
not detected,0 of 3,1 of 9,GFTFDDYAMH,GISWWSGSIGYADSVK,CGRGGGYWDY
not detected,0 of 3,1 of 9,GFTFDDYAMH,GMSWNSGSIGYADSNK,VGRGGGYFCY
3.73,2 of 3,2 of 9,GMTFHDYAMH,GISWNSGYIGYADSVK,VGRGGGYFDY
not detected,0 of 3,1 of 9,GFTFDDYAMH,GISWNSCSIGYADSVC,VGRGGGYFDY
not detected,0 of 3,1 of 9,GFTFDDYAMH,GISWASGSIHYADSVK,VGRGGGMFDY
not detected,0 of 3,1 of 9,GFTFDDYAMH,GISWNSGSNGYADSVK,VGRKGGYFQY

Again, the first 5 entries without any signal:

CDR-H1,CDR-H2,CDR-H3,"log10 Kd (nM), mean",detected,signal with controls
GFTFDDYAMH,GISWNSGSIGCADSVK,VGRVGGYFDY,not detected,0 of 3,0 of 9
GFTFDDYAMH,GISWNSGSIGAADSVK,VGRGGGNFDY,not detected,0 of 3,4 of 9
GFTFDDYARH,GISNNSCSIGYADSVK,VGRGGGYFDY,not detected,0 of 3,2 of 9
GFTFDDYAMH,GISWNSGSIIYANTVK,VGRGGGYFDY,not detected,0 of 3,1 of 9
GFGFDFYAMH,GISWNSGSIGYADSVK,VGRGGGEFDY,not detected,0 of 3,0 of 9

Background: pairings of library AAYL51 with three empty control strains gave a value in 21% of cases (median 4.54, 5th percentile 3.26). Values in that range, when seen in few replicates, are hard to tell from nonspecific mating. Also given: how often the same scFv was detected with the empty control strains.